Molecular target: recombinant HSF1 DNA-binding domain (DBD) (Homo sapiens, UniProt Q00613)
Assay: Differential Scanning Fluorimetry (DSF), HSF1 DBD melting temperature
Settings: Table 3; 5 μM HSF1 DBD, 25PM Compound; positive = stabilizes, negative = destabilizes HSF1

By UniProt entry, the sequences of proteins in these tests, tags left out. Where a name states a change or a piece, a line headed by the entry shows the natural chain unless it says otherwise.
UniProt Q00613: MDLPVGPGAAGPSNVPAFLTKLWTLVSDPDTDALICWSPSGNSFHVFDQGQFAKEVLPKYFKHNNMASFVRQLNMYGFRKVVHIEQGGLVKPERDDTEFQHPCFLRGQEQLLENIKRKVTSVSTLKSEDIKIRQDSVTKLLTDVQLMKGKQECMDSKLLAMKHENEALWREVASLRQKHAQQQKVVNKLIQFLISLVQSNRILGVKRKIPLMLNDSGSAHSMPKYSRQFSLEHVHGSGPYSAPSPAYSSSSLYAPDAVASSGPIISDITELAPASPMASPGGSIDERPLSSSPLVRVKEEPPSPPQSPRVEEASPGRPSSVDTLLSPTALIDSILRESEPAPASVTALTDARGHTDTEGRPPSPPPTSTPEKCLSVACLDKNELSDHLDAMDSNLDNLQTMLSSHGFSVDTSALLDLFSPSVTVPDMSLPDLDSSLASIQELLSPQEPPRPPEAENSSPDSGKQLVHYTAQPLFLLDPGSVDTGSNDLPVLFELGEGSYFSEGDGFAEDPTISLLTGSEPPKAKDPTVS

Work on “1-(4-chloro-3-(trifluoromethyl)phenyl)-3-(4-cyanocyclohexyl)urea” yielded a ΔTm of -9.91 °C.

Substance “1-(4-cyano-3-(2-morpholinoethoxy)phenyl)-3-(1,1-dioxidobenzo[b]thiophen-6-yl)urea” has a ΔTm of 2.94 °C.
